Target: Hst2 (Saccharomyces cerevisiae, UniProt P53686)
Assay: biochemical

Sequences of proteins named here, by UniProt entry; tags and fusion partners are left off. Residues count along the entry.
UniProt P53686, 1-294: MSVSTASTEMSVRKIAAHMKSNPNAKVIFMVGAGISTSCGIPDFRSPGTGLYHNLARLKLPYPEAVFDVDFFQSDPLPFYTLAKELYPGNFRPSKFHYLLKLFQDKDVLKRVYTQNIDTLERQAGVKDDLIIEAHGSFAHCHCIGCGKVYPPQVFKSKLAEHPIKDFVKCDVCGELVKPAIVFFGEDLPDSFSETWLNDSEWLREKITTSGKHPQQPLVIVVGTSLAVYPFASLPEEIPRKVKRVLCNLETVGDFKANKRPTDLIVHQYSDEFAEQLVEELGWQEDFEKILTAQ

COCC#CC1c2cc(O)c(OC)cc2CCN1C (centres unmarked) [Compound 14a, 6-Methoxy-1-(3-methoxy-prop-1-ynyl)-2-methyl-1,2,3,4-tetrahydro-isoquinolin-7-ol]
activity at 50 µM (read-out: % Activity at 50 μM): 76%
activity at 500 µM (read-out: % Activity at 500 μM): 5%
